Experimental data from ChEMBL document CHEMBL1128717, “2,4-Diaminopyrido[3,2-d]pyrimidine inhibitors of dihydrofolate reductase from Pneumocystis carinii and Toxoplasma gondii” (J Med Chem, 1995).

Biological target: T1, Dihydrofolate reductase (Rattus norvegicus, UniProt Q920D2)
T1 sequence (Q920D2 whole entry): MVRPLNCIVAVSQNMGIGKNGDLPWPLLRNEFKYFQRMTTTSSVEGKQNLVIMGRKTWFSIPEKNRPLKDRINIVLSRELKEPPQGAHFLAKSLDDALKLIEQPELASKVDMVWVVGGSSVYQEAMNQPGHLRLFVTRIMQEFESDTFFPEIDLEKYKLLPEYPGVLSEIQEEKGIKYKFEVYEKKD

IC50: 300 nM
Structure (SMILES): COc1cc(NCc2ccc3nc(N)nc(N)c3n2)cc(OC)c1OC
